Test results as given in US20170056496A1 (Sanofi, priority 2008, published 2017).

Conditions: cyclophosphamide alone, IV day 11 and 15 (total injected dose 354.8 mg/kg)

O=P1(N(CCCl)CCCl)NCCCO1 (stereo not shown) [cyclophosphamide]
highest nontoxic dose (HNTD): 177.4 mg/kg/inj
